Data as given in US10358453B2, “Antiviral compounds” (priority 2015, dated 2019).

Amino acid sequences for entries named in this document (tags omitted). A change or cut given only in a name is not applied to a line headed by its entry.
UniProt P28887: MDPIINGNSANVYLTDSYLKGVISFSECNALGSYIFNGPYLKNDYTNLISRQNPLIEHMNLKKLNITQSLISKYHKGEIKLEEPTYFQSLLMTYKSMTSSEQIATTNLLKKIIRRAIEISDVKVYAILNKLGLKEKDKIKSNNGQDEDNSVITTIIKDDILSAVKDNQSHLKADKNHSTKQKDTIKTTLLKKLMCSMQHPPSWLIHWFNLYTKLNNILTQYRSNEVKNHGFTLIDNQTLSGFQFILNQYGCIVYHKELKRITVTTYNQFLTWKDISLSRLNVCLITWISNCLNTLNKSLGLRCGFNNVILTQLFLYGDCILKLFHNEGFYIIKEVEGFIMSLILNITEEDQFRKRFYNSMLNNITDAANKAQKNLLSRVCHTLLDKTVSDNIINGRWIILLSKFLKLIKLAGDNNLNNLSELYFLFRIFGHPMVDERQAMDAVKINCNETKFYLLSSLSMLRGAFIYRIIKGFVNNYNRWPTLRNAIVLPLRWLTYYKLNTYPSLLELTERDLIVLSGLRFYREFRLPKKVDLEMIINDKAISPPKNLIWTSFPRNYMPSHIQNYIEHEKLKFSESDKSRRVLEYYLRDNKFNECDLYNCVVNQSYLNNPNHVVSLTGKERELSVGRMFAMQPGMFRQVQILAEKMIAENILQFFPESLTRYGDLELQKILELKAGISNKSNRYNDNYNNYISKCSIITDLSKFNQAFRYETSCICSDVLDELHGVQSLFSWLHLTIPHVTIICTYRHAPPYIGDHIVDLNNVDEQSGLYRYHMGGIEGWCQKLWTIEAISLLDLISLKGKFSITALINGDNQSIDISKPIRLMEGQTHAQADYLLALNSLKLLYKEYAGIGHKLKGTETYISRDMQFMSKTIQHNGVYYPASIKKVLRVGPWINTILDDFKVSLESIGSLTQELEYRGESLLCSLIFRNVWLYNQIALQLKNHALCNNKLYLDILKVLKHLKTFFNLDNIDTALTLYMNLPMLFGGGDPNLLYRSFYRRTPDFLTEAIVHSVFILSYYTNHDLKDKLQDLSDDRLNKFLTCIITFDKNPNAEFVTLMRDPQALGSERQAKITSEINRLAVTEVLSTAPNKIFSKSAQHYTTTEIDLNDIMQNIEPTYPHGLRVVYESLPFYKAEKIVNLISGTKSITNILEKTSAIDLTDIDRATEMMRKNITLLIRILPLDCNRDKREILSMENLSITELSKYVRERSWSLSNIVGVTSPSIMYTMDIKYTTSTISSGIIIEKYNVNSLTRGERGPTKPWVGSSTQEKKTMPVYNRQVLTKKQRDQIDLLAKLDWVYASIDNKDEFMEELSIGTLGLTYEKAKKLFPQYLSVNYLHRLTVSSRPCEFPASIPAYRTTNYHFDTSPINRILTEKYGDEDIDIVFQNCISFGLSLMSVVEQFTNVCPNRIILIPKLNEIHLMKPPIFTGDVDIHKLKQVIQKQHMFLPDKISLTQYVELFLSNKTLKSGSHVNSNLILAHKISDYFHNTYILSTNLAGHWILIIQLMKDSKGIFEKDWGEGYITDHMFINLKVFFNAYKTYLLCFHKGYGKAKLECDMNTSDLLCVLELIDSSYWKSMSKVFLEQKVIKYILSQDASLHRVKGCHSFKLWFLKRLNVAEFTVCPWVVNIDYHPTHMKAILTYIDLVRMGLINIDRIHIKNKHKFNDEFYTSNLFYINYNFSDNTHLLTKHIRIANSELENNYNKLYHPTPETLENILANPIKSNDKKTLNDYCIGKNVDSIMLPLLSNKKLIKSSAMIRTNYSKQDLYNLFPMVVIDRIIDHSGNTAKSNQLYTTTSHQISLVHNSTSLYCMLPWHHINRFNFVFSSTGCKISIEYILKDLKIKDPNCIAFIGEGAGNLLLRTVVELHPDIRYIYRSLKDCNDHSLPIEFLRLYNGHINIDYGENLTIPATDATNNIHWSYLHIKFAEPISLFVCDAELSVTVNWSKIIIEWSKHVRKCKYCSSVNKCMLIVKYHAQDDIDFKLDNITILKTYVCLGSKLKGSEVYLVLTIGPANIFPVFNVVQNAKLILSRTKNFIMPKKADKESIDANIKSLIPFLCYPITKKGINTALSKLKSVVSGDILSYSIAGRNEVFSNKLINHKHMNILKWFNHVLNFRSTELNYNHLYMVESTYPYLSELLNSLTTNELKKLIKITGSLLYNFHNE

Biological target: recombinant RSV complex (Human respiratory syncytial virus A, UniProt P28887)
Test: RSV polymerase inhibition assay
Type: biochemical
Details: IC50, 10 nM recombinant RSV complex, 2 h at 30° C.; Table E = <1 μM, Table F = <50 μM
Method: Standard RSV polymerase assays were conducted in the presence of 10 nM recombinant RSV complex in a reaction buffer containing Tris-HCl pH7.5, 6 mM MgCl2, and other additives and substrates including RNA oligonucleotides and radionucleotides. Standard reactions were incubated in 96-well plate format for 2 h at 30° C., in the presence of increasing concentration of inhibitor. The reaction was stopped with 90 μL of 0.1M EDTA, and the reaction product was transferred to a “reading” 96-well plate. After washing of the plate, radiolabeled RNA products were detected according to standard procedures with a Trilux Topcount scintillation counter. The compound concentration at which the enzyme-catalyzed rate was reduced by 50% (IC50) was calculated by fitting the data to a non-linear regression (sigmoidal).

## C[C@@]1(N)COc2c1cc([C@](O)(CNC(=O)c1ccc(Cl)s1)C(F)(F)F)nc2-c1ccc(F)cc1 [Compound 110]
  IC50: < 1000 nM
